This is an account of results in paper PMC9669179 (Epilepsia, 2022).

The conditions of the data set: Sprague Dawley, rat, in vivo.

As for `CCCC(CCC)C(=O)O` [VPA, sodium valproate], the “Plasma Dose Prop (AUC)” value was 1.58.
